This is a sample that favours compounds with a hit; in the whole collection about 16% have one here.
DT40 TDP1 no CPT: qHTS for Inhibitors of human tyrosyl-DNA phosphodiesterase 1 (TDP1): qHTS in cells in absence of CPT; Potency, µM (top dose mostly 46.2 µM), for inactives: at the highest dose activity change, negative = growth inhibition, usual class: inhibitors; DT40 Tdp1-/- hTDP1 cells, no CPT, ATP luminescence, 48 h; hit rate 15% among 420,000; note: potency is the fitted concentration of half-maximal effect; % is set by controls: 0 for no effect and ±100 for the full control effect; nearly all actives have a fitted effect of over 55% in size
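Chicken DT40 Tdp1-/- cells complemented with human TDP1, screened without camptothecin (DMSO vehicle only), 400 cells/well. Compounds pin-transferred, cells incubated at 37 °C for at least 48 hr. Growth read as ATP-dependent luminescence (CellTiter-Glo, 30 min at RT).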
uPA surface inh: cell surface uPA generation inhibition; cell surface uPA generation assay, qHTS; Potency, µM (highest dose often 38.3 µM), without a hit: top-dose activity change, negative = inhibition, most hits filed as inhibitors; hit rate 0.31% among 330,000; active = well fitted inhibition curve with a large enough effect; inconclusive = small, poorly fitted or top-dose-only effect; inactive = no such curve, though single readings can be large or run the other way; tested in mouse RAW 264.7 cells; note: potency is the fitted concentration of half-maximal effect; % is set by controls: 0 for no effect and ±100 for the full control effect; nearly all actives have a fitted effect of over 55% in size
miR-21 FLuc: miR-21 reporter, rising signal; HeLa miR-21 FLuc reporter, luciferase, 48 h; Potency, µM (titrated, usually from 38.3 µM), without a hit: top-dose reporter change, positive = more light; AID 2288; 340,000 tested, under 10 active; active = well fitted rising curve with a large enough effect; inconclusive = small, poorly fitted or top-dose-only effect; inactive = no such curve, though single readings can be large or run the other way;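 further: % of control where 0% means no effect; miR-21 action dims this reporter so a rising signal means less miR-21 action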
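HeLa miR-21-FLuc reporter line, endogenous miR-21; 2000 cells/well in DMEM/10% FBS; compound titration up to ~40uM final, 48 h, 37 degree Celsius; luciferase detection reagent, 15 min lysis, CCD luminescence.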
TDP1 inh: TDP1 (human) enzyme inhibition; Q9NUW8; recombinant TDP1, AlphaScreen DNA substrate cleavage; Potency, µM (titrated, usually from 130 µM), for inactives: top-dose activity change, negative = inhibition, most hits filed as inhibitors; hit rate 0.28% among 350,000; AID 485290; note: potency is the fitted concentration of half-maximal effect; % is set by controls: 0 for no effect and ±100 for the full control effect; nearly all actives have a fitted effect of over 40% in size
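AlphaScreen read-out: signal falls as enzyme removes the 3' tyrosine-FITC from a 5'-biotinylated DNA oligo (15 nM, 5 min, RT). Enzyme was E. coli-made recombinant Tdp1 at 1 nM, exposed to compound for 15 min beforehand; beads 10 ug/ml, 10 min.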
TDP1 cell CPT: DT40-hTDP1 cell growth loss with CPT | AID 686979 | Potency, µM (titrated, usually from 46.2 µM), inactives show at the highest dose activity change, negative = growth inhibition, usual class: inhibitors | hit rate 12% among 420,000 | chicken DT40 Tdp1-/-;hTDP1 cells + 20 nM CPT, ATP luminescence, 48 h; note: potency is the fitted concentration of half-maximal effect; % is set by controls: 0 for no effect and ±100 for the full control effect; nearly all actives have a fitted effect of over 55% in size
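Cell growth measured by CellTiter-Glo luminescence after a minimum 48 h, 37 C compound exposure with 20 nM CPT in Tdp1-knockout DT40 cells stably expressing hTDP1, seeded 400/well; qHTS titration format.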
Starred values were filed as active, the others as inactive; ? = inconclusive; · = not tested or not shown; [ ] = remark or other dose. Unless noted, calls come from the whole dose curve; as a rule, active = well fitted curve in the direction sought with a large enough effect; inconclusive = small, poorly fitted or top-dose-only effect, or another doubt; inactive = no such curve, though single readings can be large; an effect the other way counts as inactive or inconclusive.

The opening two records (preview)
Every second line gives: DT40 TDP1 no CPT | uPA surface inh | miR-21 FLuc | TDP1 inh | TDP1 cell CPT
COc1ccc(C(=O)CN2C(=O)COc3ccccc32)cc1
→ -22.5% | 0.0% | -12.5% | -1.2% | -16.4%
COc1ccc(C(=O)CN2Cc3ccccc3C2=N)cc1
→ 18.4µM* | ? | -26.3% | · | 16.4µM*

Main list, repeating the preview:
Every second line gives: DT40 TDP1 no CPT | uPA surface inh | miR-21 FLuc | TDP1 inh | TDP1 cell CPT
COc1ccc(C(=O)CN2C(=O)COc3ccccc32)cc1
→ -22.5% | 0.0% | -12.5% | -1.2% | -16.4%
COc1ccc(C(=O)CN2Cc3ccccc3C2=N)cc1
→ 18.4µM* | ? | -26.3% | · | 16.4µM*
CCN(CC(=O)NCc1cccnc1)S(=O)(=O)c1ccc(OC)cc1
→ -4.3% | 3.3% | -1.7% | 0.0% | -5.0%
COC(=O)c1ccc2nc(-c3ccc(Cl)cc3)c(Cc3cccc(Cl)c3)n2c1
→ 18.4µM* | · | · | · | ?
COC(=O)c1ccc2nc(-c3ccc(C)cc3)c(Cc3cccc(Cl)c3)n2c1
→ 16.4µM* | · | · | · | 16.4µM*
C/C=C/c1ccc(OCCSc2nc(C)cc(=O)[nH]2)c(OC)c1
→ -26.6% | -8.3% | -34.2% | 2.1% | -25.9%
COc1ccc(-c2noc(CCC(=O)NCCc3ccccc3)n2)cc1
→ ? | 5.6% | -13.9% | · | -18.3%
COc1ccc(-c2noc(CCC(=O)NCC3CCN(Cc4cccc(C)c4)CC3)n2)cc1
→ 23.1µM* | -2.4% | 10.9% | 1.0% | ?
COc1ccc(-c2noc(CCC(=O)NC3CCN(Cc4ccccc4)CC3)n2)cc1
→ 11.6µM* | -0.4% | 6.0% | · | ?
Cc1cccc(CCNC(=O)CCc2nc(-c3ccccc3F)no2)c1
→ ? | -4.2% | -4.6% | 6.9% | -24.5%
O=C(CCc1nc(-c2ccccc2F)no1)NCCN1CCN(Cc2ccccc2)CC1
→ ? | 4.4% | -2.4% | 7.7% | 18.4µM*
O=C(CN1C(=O)NC2(CCCCCCC2)C1=O)NCc1ccccc1Cl
→ ? | -13.4% | · | -2.2%[56.1 µM] | -15.4%
Cc1cccc(NC(=O)C2CCN(c3cnccn3)CC2)c1
→ -4.1% | · | 0.2% | -2.3% | -9.7%
O=C(NC1CCN(Cc2ccc(Cl)cc2)CC1)c1cn(-c2ccccc2)nc1-c1cccnc1
→ ? | ? | · | 2.3% | 16.4µM*
COc1ccc(CNn2c(-c3ccccc3F)nc3ccccc3c2=O)cc1OC
→ 18.4µM* | -1.6% | -0.2% | -1.2% | ?
COc1ccc(OC)c(CNn2c(-c3ccccc3F)nc3ccccc3c2=O)c1
→ 18.4µM* | 2.8% | 27.3% | -1.2% | ?
CCN(CC)S(=O)(=O)c1ccc(C)c(NC(=O)CSc2nc3ccccc3[nH]2)c1
→ 23.1µM* | -4.3% | 9.5% | 0.0% | ?
CCN(CC)S(=O)(=O)c1ccc(C)c(NC(=O)/C=C/c2cccs2)c1
→ 13µM* | -4.7% | 12.3% | 5.6% | 20.6µM*
COc1ccc(Nc2cccccc2=O)cc1
→ -18.1% | -2.7% | -28.4% | 4.4% | ?
Cc1ccc(NN2C(=O)C=C(c3ccc(Cl)cc3)C2=O)cc1
→ 4.11µM* | -11.4% | 20.8% | · | 5.8µM*
O=C1C=C(c2ccccc2)C(=O)N1Nc1ccccc1
→ 5.8µM* | -19.9% | ? | 7.6% | 4.11µM*
COc1ccc(C2=CC(=O)N(Nc3ccccc3)C2=O)cc1
→ 20.6µM* | -16.1% | 18.5% | -2.9% | 18.4µM*
CC(C)c1ccc(CN(C)CC(O)c2ccccc2)cc1 (configuration not stated)
→ 2.9% | -1.7% | 0.4% | -5.8% | -0.2%
O=C(c1cc(-c2cccnc2)nc2ccc(Br)cc12)N1CCN(c2ncccn2)CC1
→ 18.4µM* | -4.0% | -1.6% | -2.0% | ?
O=C(Nc1ccc(C(=O)N2CCOCC2)cc1)c1cc(-c2cccnc2)nc2ccc(Br)cc12
→ 2.31µM* | -21.6% | -7.8% | 8.2% | 2.31µM*
CC(=O)c1ccc(N2CCN(C(=O)c3cc(-c4cccnc4)nc4ccc(Br)cc34)CC2)cc1
→ 18.4µM* | -6.2% | -3.2% | 1.2% | ?
CS(=O)(=O)N1CCN(C(=O)c2cc(-c3cccnc3)nc3ccc(Cl)cc23)CC1
→ ? | -0.2% | 0.4% | 6.2% | 0.0%
CS(=O)(=O)N1CCN(C(=O)c2cc(-c3cccnc3)nc3ccc(Br)cc23)CC1
→ 9.2µM* | -2.3% | -0.3% | 0.0% | -4.1%
CCN1CCCC1CNC(=O)c1cc2cc(F)ccc2[nH]1 (configuration not stated)
→ 17.0% | 3.7% | 2.7% | · | -20.5%
Cc1ccc2nc(-c3ccccc3)cc(C(=O)N3CCN(c4ccccc4O)CC3)c2c1
→ ? | 0.2% | · | 5.6%[0.505 µM] | ?

Individual results from above:
Cc1cccc(CCNC(=O)CCc2nc(-c3ccccc3F)no2)c1 | miR-21 FLuc: -4.6%
Cc1cccc(NC(=O)C2CCN(c3cnccn3)CC2)c1 | DT40 TDP1 no CPT: -4.1%
CCN(CC(=O)NCc1cccnc1)S(=O)(=O)c1ccc(OC)cc1 | TDP1 inh: 0.0%
Cc1ccc(NN2C(=O)C=C(c3ccc(Cl)cc3)C2=O)cc1 | DT40 TDP1 no CPT: 4.11µM*
COc1ccc(OC)c(CNn2c(-c3ccccc3F)nc3ccccc3c2=O)c1 | TDP1 inh: -1.2%

Remaining list, next part:
Molecule | DT40 TDP1 no CPT | uPA surface inh | miR-21 FLuc | TDP1 inh | TDP1 cell CPT
Cc1ccc2nc(-c3cccnc3)cc(C(=O)N3CCN(c4ccc([N+](=O)[O-])cc4)CC3)c2c1 | 18.4µM* | -0.4% | 2.4% | 8.2% | 16.4µM*
COc1ccc(CCN2CC(C(=O)Nc3cccc(C(C)=O)c3)CC2=O)cc1OC (configuration not stated) | -21.6% | 0.7% | -1.1% | -7.5% | 1.3%
CCC1(C2CCN(C(=O)c3ccccc3Cl)CC2)NC(=O)N(CCc2scnc2C)C1=O (configuration not stated) | -8.7% | · | · | · | 19.1%
Nc1ccccc1Nc1cc(-c2ccccc2)[nH]n1 | 13µM* | 5.5% | -17.0% | 7.7% | -56.6%
N#Cc1cc(-c2ccccc2)nn1-c1ccccc1 | 20.6µM* | 0.8% | -19.6% | · | ?
Nc1ccccc1Nc1cc(-c2ccccc2)nn1-c1ccccc1 | 20.6µM* | 1.8% | -27.3% | 7.0% | 23.1µM*
COc1cc(C(=O)NNC(=O)/C=C/c2ccco2)cc(OC)c1OC | -10.3% | 4.6% | · | -9.0% | 6.3%
CCCNC(=O)c1cc(-c2ccco2)on1 | 9.2µM* | · | -72.4% | 1.0%[56.1 µM] | 9.2µM*
CC(C)CNC(=O)c1cc(-c2ccco2)on1 | 17.8µM* | · | -49.9% | 0.0% | 15.8µM*
COc1ccc2oc(=O)c(C(=O)NCCc3c(C)[nH]c4ccc(C)cc34)cc2c1 | · | · | 13.4% | 3.2% | ·
Cc1cc(C)c(S(=O)(=O)N(C2=NCCS2)S(=O)(=O)c2c(C)cc(C)cc2C)c(C)c1 | ? | 8.4% | -5.2% | 1.1% | ?
O=C(O)c1ccc(NC(C(=O)c2ccccc2)c2ccccc2)cc1 (configuration not stated) | -8.9% | -2.7% | · | · | -2.5%
O=C(c1ccccc1)C(c1ccccc1)[n+]1csc2ccccc21 (configuration not stated) | 11.2µM* | · | · | · | ?
CC1CC(C)CN(S(=O)(=O)N2CCC(C(=O)NCCc3ccccc3)CC2)C1 (configuration not stated) | -4.3% | 8.6% | -8.3% | 6.0% | -13.3%
O=C(/C=C\NCC(=O)c1ccccc1)c1ccc2ccccc2c1 | ? | -8.0% | -26.6% | 8.2% | -28.8%
COc1ccccc1NC(=O)CSc1nnc(C)n1CCc1ccccc1 | -10.5% | -1.0% | 1.3% | 4.0% | 0.4%
Cc1ccc2nc(-c3ccc(NC(=S)NC(=O)C(C)C)cc3)sc2c1 | -12.5% | 2.9% | -62.5% | -2.6% | -10.7%
Cc1ccc2nc(-c3ccc(NC(=O)CCN4C(=O)c5ccccc5C4=O)cc3)sc2c1 | -38.0% | -10.2% | -48.2% | -4.6% | -25.9%
